According to PubChem BioAssay (NCI):
Some of these compounds have results that are not shown, active ones among them.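 Protocol summary: plate cells (96-well), add compound at 5 concentrations, incubate 48 h, interpolate endpoints linearly. TGI marks complete inhibition of growth.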

How the values were obtained:
Assay in all cases: NCI anticancer screen, dose series, 48 h
SF-539 CNS = tested on: SF-539 CNS
SK-MEL-5 melanoma = tested on: SK-MEL-5 melanoma
UACC-257 melanoma = tested on: UACC-257 melanoma
HOP-62 NSCLC = tested on: HOP-62 NSCLC
ACHN renal = tested on: ACHN renal
NCI-H23 lung = tested on: NCI-H23 lung
RXF 393 renal = tested on: RXF 393 renal
MCF7 breast = tested on: MCF7 breast
SW-620 colon = tested on: SW-620 colon
LOX IMVI melanoma = tested on: LOX IMVI melanoma
MDA-N = tested on: MDA-N
HCT-15 colon = tested on: HCT-15 colon
OVCAR-8 ovarian = tested on: OVCAR-8 ovarian
SNB-19 CNS = tested on: SNB-19 CNS
MOLT-4 leukemia = tested on: MOLT-4 leukemia
SN12C renal = tested on: SN12C renal
K-562 leukemia = tested on: K-562 leukemia
UACC-62 melanoma = tested on: UACC-62 melanoma
SNB-75 CNS = tested on: SNB-75 CNS
M14 melanoma = tested on: M14 melanoma
T-47D breast = tested on: T-47D breast
EKVX NSCLC = tested on: EKVX NSCLC
786-0 renal = tested on: 786-0 renal
SR leukemia = tested on: SR leukemia
MDA-MB-231 breast = tested on: MDA-MB-231 breast
MALME-3M melanoma = tested on: MALME-3M melanoma
A549 NSCLC = tested on: A549 NSCLC
U251 CNS = tested on: U251 CNS
RPMI-8226 leukemia = tested on: RPMI-8226 leukemia
HCT-116 colon = tested on: HCT-116 colon
KM12 colon = tested on: KM12 colon
HT29 colon = tested on: HT29 colon
CCRF-CEM leukemia = tested on: CCRF-CEM leukemia
COLO 205 colon = tested on: COLO 205 colon
IGROV1 ovarian = tested on: IGROV1 ovarian
CAKI-1 renal = tested on: CAKI-1 renal
OVCAR-5 ovarian = tested on: OVCAR-5 ovarian
SF-295 CNS = tested on: SF-295 CNS
NCI/ADR-RES ovarian = tested on: NCI/ADR-RES ovarian
SF-268 CNS = tested on: SF-268 CNS
SK-OV-3 ovarian = tested on: SK-OV-3 ovarian
NCI-H226 lung = tested on: NCI-H226 lung
TK-10 renal = tested on: TK-10 renal
DU-145 prostate = tested on: DU-145 prostate
NCI-H522 lung = tested on: NCI-H522 lung
SK-MEL-28 melanoma = tested on: SK-MEL-28 melanoma
OVCAR-3 ovarian = tested on: OVCAR-3 ovarian
PC-3 prostate = tested on: PC-3 prostate
HCC-2998 colon = tested on: HCC-2998 colon
UO-31 renal = tested on: UO-31 renal
HL-60(TB) leukemia = tested on: HL-60(TB) leukemia

Measured: TGI

CN1CCC(OC(=O)C2(O)c3ccccc3Oc3ccccc32)CC1
> 100 µM: all assays above
